From PubChem BioAssay
Hits are enriched below; roughly 2.2% of the tested compounds scored in any of these assays.
ERp5 inh: blocks human ERp5 reductase activity on insulin | Q15084 | ERp5 insulin aggregation, absorbance 650 nm, 90 min | inhibition, % at 9.99 µM | 350,000 compounds, 0.05% hits;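 active = mean replicate inhibition above about 25%, with every replicate also reaching it, limit read from the data, passing the limit was not always enough; inconclusive = only one of those two criteria met; inactive = neither criterion met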
PDI turbidity: inhibitors of human protein disulfide isomerase; PDI insulin aggregation turbidity, A650, 90 min; inhibition, % at 10 µM; 350,000 compounds, 0.052% hits; P07237;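 active = mean inhibition across replicates of 30% or more, whatever share of single replicates reach that level; inconclusive = mean inhibition below 30% while every single replicate reaches 30%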
UUG fidelity: yeast start codon fidelity modulation | S. cerevisiae UUG-firefly luciferase reporter, luminescence/redox ratio | activity score, % at 18.7 µM | 0.13% of 350,000 active | AID 602363;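 active means replicate mean at a twofold rise or more, about +100% in these data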;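 further: firefly luciferase made from a UUG start codon reports start codon fidelity; reporter light over untreated wells divided by growth signal over untreated wells; some hits fall short of that in this replicate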
S100A4 MyoIIA: inhibitors of human S100A4 binding to myosin IIA peptide; S100A4/TAMRA-MyoIIA peptide fluorescence polarization; 360,000 compounds, 0.14% hits; P26447; inhibition, % at 10.7 µM;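 active = mean inhibition of at least 70% across replicates, with every replicate also reaching that level; inconclusive = mean inhibition reaches 70% but some replicates fall short; inactive = mean inhibition below 70%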
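incubation = readout 5 min after mixing, signal stable up to 60 min | system = S100A4 monomer protein | buffer or medium = HEPES pH 7.2 with CaCl2, KCl, NaCl, DTT, Triton | benchmarks = neutral control DMSO, positive control TFP | also added = fluorescent myosin IIA peptide, 5 nM | compound dosing = one concentration per compound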
SIRT5 inh: inhibitors of human sirtuin-5 desuccinylase | Purified SirT5, succinyl-peptide AMC, trypsin-coupled fluorescence | Q9NXA8 | 330,000 compounds, 1.1% hits | inhibition, % at 15 µM; in the data active = inhibition above about 15%; inconclusive = no clear call, values can overlap the other calls
FGF22 binding: binders of recombinant human FGF22 by thermal shift. Q9HCT0. SYPRO orange fluorescence; percent of sucrose octasulfate shift, DMSO zero. activity (Tm shift, normalised), % at 9.99 µM. 340,000 compounds, 1.5% hits;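 active = mean Tm shift, scaled 0 neutral to 100 positive control, at about 1.3% or above, every replicate too, limit read from the data; inconclusive = no clear call, values can overlap the other calls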
Numbers without * were called inactive; u = inconclusive; x = no result given; ! = repeats disagree.

Short forms: A = ERp5 inh; B = PDI turbidity; C = UUG fidelity; D = S100A4 MyoIIA; E = SIRT5 inh; F = FGF22 binding
1: Cc1ccc(S(=O)(=O)N(C)C[C@H]2Oc3ncc(-c4ccncc4)cc3C(=O)N([C@@H](C)CO)C[C@@H]2C)cc1
  A = -8; B = x; C = 7; D = -3; E = 32*; F = 0
2: C[C@@H]1CN([C@@H](C)CO)C(=O)c2cc(Br)cnc2O[C@H]1CN(C)Cc1ccccc1
  A = -8; B = x; C = -8; D = 14; E = 1; F = 0
3: Cc1ccc(S(=O)(=O)N(C)C[C@H]2Oc3ncc(-c4ccncc4)cc3C(=O)N([C@@H](C)CO)C[C@H]2C)cc1
  A = 0; B = x; C = 9; D = -5; E = -1; F = 0
4: C[C@@H]1CN([C@@H](C)CO)C(=O)c2cc(-c3cccc(F)c3)cnc2O[C@H]1CN(C)C
  A = -6; B = x; C = -5; D = -57; E = 20*; F = 0
5: C[C@@H]1CN([C@@H](C)CO)C(=O)c2cc(-c3ccccc3)cnc2O[C@@H]1CN(C)C(=O)C1CCOCC1
  A = -1; B = x; C = -13; D = -6; E = -6; F = 0
6: C[C@H](CO)N1C[C@H](C)[C@@H](CN(C)C(=O)C2CCOCC2)Oc2ncc(-c3ccccc3)cc2C1=O
  A = -3; B = x; C = -14; D = 3; E = 21*; F = 0
7: CC(C)C[C@H](NC(=O)c1ccc(OC2CCN(C(=O)C3CC3)CC2)cc1)C(N)=O
  A = 2; B = -2; C = x; D = -2; E = 0; F = x
8: CC(CCCC(C)(C)O)NC(=O)c1ccc(OC2CCN(C(=O)C3CC3)CC2)cc1 (stereo not drawn)
  A = -2; B = -1; C = 1; D = 3; E = -3; F = 43*
9: Cc1ccc(S(=O)(=O)Nc2ccc3c(c2)C(=O)N([C@H](C)CO)C[C@H](C)[C@@H](CN(C)Cc2ccc(Cl)c(Cl)c2)OCCCC[C@H](C)O3)cc1
  A = 6; B = x; C = -3; D = u; E = 28*; F = x
10: Cc1ccc(S(=O)(=O)Nc2ccc3c(c2)C(=O)N([C@H](C)CO)C[C@@H](C)[C@H](CN(C)Cc2ccc(Cl)c(Cl)c2)OCCCC[C@@H](C)O3)cc1
  A = 5; B = x; C = x; D = -3; E = 6; F = 0
11: C[C@@H]1CN([C@H](C)CO)C(=O)c2cc(NS(=O)(=O)c3ccccc3)ccc2O[C@@H](C)CCCCO[C@@H]1CN(C)Cc1ccc(Cl)c(Cl)c1
  A = -7; B = x; C = 15; D = -1; E = 15*!; F = 1
12: O=C(C[C@@H]1CC[C@H]2[C@@H](COC[C@@H](O)CN2Cc2cccc(C(F)(F)F)c2)O1)NCc1ccc(F)cc1
  A = 10; B = x; C = 2; D = -2; E = 0; F = 0
13: O=C(Nc1ccc2c(c1)[C@@H]1C[C@H](CC(=O)N3CCCCC3)O[C@@H](CO)[C@@H]1O2)C1CCC1
  A = 12; B = x; C = -2; D = -7; E = 3; F = 0
14: O=C(NCC[C@H]1CC[C@H](NS(=O)(=O)c2cccc(F)c2)[C@@H](CO)O1)C1CCOCC1
  A = 5; B = x; C = -14; D = -2; E = 3; F = 1
15: C[C@H](O)C#Cc1ccc2c(c1)O[C@H](CN(C)Cc1ccc(-c3ccccc3)cc1)[C@H](C)CN([C@H](C)CO)S2(=O)=O
  A = -4; B = x; C = x; D = 10; E = 32*; F = 0
16: C[C@@H]1CN([C@@H](C)CO)S(=O)(=O)c2ccc(C#C[C@@H](C)O)cc2O[C@H]1CN(C)Cc1ccc(-c2ccccc2)cc1
  A = 5; B = x; C = x; D = -9; E = 35*; F = 0
17: C[C@@H]1CN([C@@H](C)CO)S(=O)(=O)c2ccc(C#C[C@@H](C)O)cc2O[C@@H]1CN(C)Cc1ccccc1
  A = -1; B = x; C = -2; D = -12; E = 14; F = 0
18: C[C@H](O)C#Cc1ccc2c(c1)O[C@@H](CN(C)Cc1ccc(-c3ccccc3)cc1)[C@@H](C)CN([C@@H](C)CO)S2(=O)=O
  A = -6; B = x; C = x; D = 5; E = 30*; F = 0
19: C[C@H](CO)N1C[C@H](C)[C@H](CN(C)Cc2ccc(-c3ccccc3)cc2)Oc2cc(C#C[C@@H](C)O)ccc2S1(=O)=O
  A = 9; B = x; C = x; D = 1; E = 25*; F = 0
20: C[C@H](O)C#Cc1ccc2c(c1)O[C@@H](CN(C)Cc1ccccc1)[C@H](C)CN([C@@H](C)CO)S2(=O)=O
  A = 15; B = x; C = -1; D = 0; E = 4; F = 0
21: C[C@@H](O)C#Cc1ccc2c(c1)O[C@@H](CN(C)Cc1ccccc1)[C@@H](C)CN([C@@H](C)CO)S2(=O)=O
  A = 0; B = x; C = -1; D = 1; E = -2; F = 0
22: C[C@H](O)C#Cc1ccc2c(c1)O[C@H](CN(C)Cc1ccc(-c3ccccc3)cc1)[C@@H](C)CN([C@H](C)CO)S2(=O)=O
  A = 0; B = x; C = x; D = -13; E = 28*; F = 0
23: O=C(NCCOc1nc(N2CCCCC2)nc(N2CCCCC2)n1)Nc1ccccc1
  A = 3; B = -13; C = -7; D = 3; E = -1; F = 44*
24: CN1[C@H](C(=O)NCC2CC2)[C@@H](CO)[C@@H]2Cn3c(ccc(-c4ccc(F)cc4)c3=O)[C@@H]21
  A = -1; B = x; C = x; D = 19; E = 2; F = 0
25: COc1ccc(S(=O)(=O)N(C)C[C@H]2OCCCC[C@@H](C)Oc3ccc(NS(=O)(=O)c4cn(C)cn4)cc3C(=O)N([C@@H](C)CO)C[C@H]2C)cc1
  A = 0; B = x; C = x; D = 6; E = 16*; F = 0
26: COc1ccc(CN(C)C[C@@H]2OCCCC[C@H](C)Oc3ccc(NS(=O)(=O)c4cn(C)cn4)cc3C(=O)N([C@@H](C)CO)C[C@H]2C)cc1
  A = -2; B = x; C = 9; D = 110*; E = -1; F = -1
27: C[C@@H]1CN([C@@H](C)CO)C(=O)c2cc(NS(=O)(=O)c3cn(C)cn3)ccc2O[C@@H](C)CCCCO[C@@H]1CN(C)Cc1ccc(C(F)(F)F)cc1
  A = -1; B = x; C = 17; D = -2; E = 15*; F = 0
28: COc1ccc(CN(C)C[C@@H]2OCCCC[C@@H](C)Oc3ccc(NS(=O)(=O)c4cn(C)cn4)cc3C(=O)N([C@@H](C)CO)C[C@H]2C)cc1
  A = -5; B = x; C = 20; D = 8; E = 0; F = -1
29: O=C(Nc1ccccc1)N1C[C@@H]2[C@H](c3ccccc31)[C@H](CO)N2C(=O)c1ccncc1
  A = 1; B = x; C = -2; D = -5; E = 2; F = 1
30: C[C@H](CO)N1C[C@H](C)[C@H](CN(C)S(=O)(=O)c2ccccc2)Oc2ccc(NS(=O)(=O)c3cn(C)cn3)cc2CC1=O
  A = -4; B = x; C = -3; D = -24; E = -2; F = 0

Brought forward from above: 3 entries, followed by the next part.
Short forms: A = ERp5 inh; B = PDI turbidity; C = UUG fidelity; D = S100A4 MyoIIA; E = SIRT5 inh; F = FGF22 binding
28: COc1ccc(CN(C)C[C@@H]2OCCCC[C@@H](C)Oc3ccc(NS(=O)(=O)c4cn(C)cn4)cc3C(=O)N([C@@H](C)CO)C[C@H]2C)cc1
  A = -5; B = x; C = 20; D = 8; E = 0; F = -1
29: O=C(Nc1ccccc1)N1C[C@@H]2[C@H](c3ccccc31)[C@H](CO)N2C(=O)c1ccncc1
  A = 1; B = x; C = -2; D = -5; E = 2; F = 1
30: C[C@H](CO)N1C[C@H](C)[C@H](CN(C)S(=O)(=O)c2ccccc2)Oc2ccc(NS(=O)(=O)c3cn(C)cn3)cc2CC1=O
  A = -4; B = x; C = -3; D = -24; E = -2; F = 0
31: CN(C)CC(=O)Nc1ccc2c(c1)[C@@H]1C[C@@H](CC(=O)NC3CCCCC3)O[C@@H](CO)[C@@H]1O2
  A = -2; B = x; C = x; D = -30; E = -1; F = 0
32: O=C(CN1CCC(NC(=O)c2cccc(F)c2)CC1)NCc1cccs1
  A = -1; B = -12; C = x; D = -1; E = 3; F = 0
33: O=C(CN1CCC(C(=O)c2cccc(F)c2)CC1)NCc1cccs1
  A = 2; B = 7; C = x; D = -1; E = 0; F = 43*
34: Cc1ccc(C(=O)NNC(=O)c2nn(-c3ccc(F)cc3)ccc2=O)cc1
  A = 0; B = -4; C = -8; D = 3; E = 3; F = 0
35: CC(C)NC(=O)NNC(=O)c1nn(-c2ccc(F)cc2)ccc1=O
  A = 2; B = -3; C = x; D = 0; E = 22*; F = 0
36: O=C(NNC(=O)C1CC1)c1ccc(-c2ccccc2)cc1
  A = -4; B = 4; C = 12; D = -2; E = -13; F = 0
37: O=C(NNC(=O)c1ccccc1C(=O)O)c1ccc(-c2ccccc2)cc1
  A = 2; B = x; C = x; D = -8; E = -1; F = 43*
